Laboratory results reported in ChEMBL document CHEMBL1124646, “Sulfur-containing 1,3-dialkylxanthine derivatives as selective antagonists at A1-adenosine receptors” (J Med Chem, 1989).

Protein sequences, listed by entry. Tags and fused reporters are not part of them.
UniProt P25099, whole entry: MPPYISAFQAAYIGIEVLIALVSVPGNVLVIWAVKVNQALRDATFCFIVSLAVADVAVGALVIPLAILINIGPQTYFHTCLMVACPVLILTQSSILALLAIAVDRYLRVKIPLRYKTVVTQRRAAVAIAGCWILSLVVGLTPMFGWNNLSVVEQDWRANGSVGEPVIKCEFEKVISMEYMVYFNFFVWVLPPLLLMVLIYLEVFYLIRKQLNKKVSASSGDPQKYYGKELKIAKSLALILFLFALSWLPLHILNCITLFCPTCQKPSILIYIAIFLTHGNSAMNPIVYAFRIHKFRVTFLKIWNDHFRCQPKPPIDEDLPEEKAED

Target: Adenosine receptor A1 (Rattus norvegicus, UniProt P25099)
Assay type: cell membranes, Membrane

## CCCn1c(=O)c2[nH]c(-c3ccc(OCC(=O)N(C)CCN(C)C)cc3)nc2n(CCC)c1=O
  Ki: 930 pM
